According to patent US20070071699A1, “Benzylidene-1,3-thiazolidine-2,4-dione compounds for promoting and/or inducing and/or stimulating the pigmentation of keratin materials and/or for limiting their depigmentation and/or whitening” (L'OREAL, priority 2005, published 2007):

biological target: T1, type-1 15-PGDH (Homo sapiens, UniProt P15428); assay: Test on type-1 15-PGDH (spectrophotometric, NADH formation at 340 nm, PGE2 substrate); type: biochemical; conditions: IC50dh (concentration reducing the enzymatic activity of 15-PGDH by 50%), 37° C., pH 7.4 Tris buffer, 1.5 mM β-NAD, 50 μM Prostaglandin E2
T1 construct: made in house
T1 sequence (P15428 1-266): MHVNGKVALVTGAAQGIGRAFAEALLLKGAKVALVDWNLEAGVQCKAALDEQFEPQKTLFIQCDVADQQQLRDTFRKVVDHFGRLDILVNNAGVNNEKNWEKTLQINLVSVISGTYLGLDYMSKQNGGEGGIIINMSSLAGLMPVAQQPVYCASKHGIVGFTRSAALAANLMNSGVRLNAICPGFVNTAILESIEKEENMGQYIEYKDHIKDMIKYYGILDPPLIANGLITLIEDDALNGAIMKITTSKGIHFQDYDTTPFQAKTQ
Description: For the purposes of the test, this suspension is thawed and stored in ice.
0.965 ml of this buffer (brought to 37° C. beforehand) is introduced into the cuvette of a spectrophotometer (Perkin-Elmer, Lambda 2) thermostatically maintained at 37° C., the measuring wavelength of which is set at 340 nm. 0.035 mL of enzymatic suspension at 37° C. is introduced into the cuvette concomitantly with the recording (corresponding to an increase in the optical density at 340 nm). The maximum reaction rate is recorded.

First: O=C1NC(=O)/C(=C/c2ccccc2Oc2ccccc2)S1 [Compound 1]
Second: O=C1NC(=O)/C(=C/c2ccccc2Oc2ccc(Cl)cc2)S1 [Compound 2]
The IC50 of the first is 2.4-fold higher: 12000 nM for the first, 5000 nM for the second. The second is the more potent here.

`CC(C)(C)c1ccc(Oc2ccccc2/C=C2\SC(=O)NC2=O)cc1` [Compound 3] and `CC(C)(C)c1ccc(Oc2ccc(/C=C3\SC(=O)NC3=O)cc2)cc1` [Compound 20] are within 1.5-fold of each other in IC50: 80 nM for the first, 85 nM for the second.

Compared with `CC(C)(C)c1ccc(Oc2ccccc2/C=C2\SC(=O)NC2=O)cc1` [Compound 4, (5Z)-5-[2-(4-tert-butylphenoxy)benzylidene]-1,3-thiazolidine-2,4-dione], `O=C1NC(=O)/C(=C\c2ccccc2Oc2cccc(C(F)(F)F)c2)S1` [Compound 9] is 26-fold higher in IC50: 94 nM for the first, 2400 nM for the second.

First: O=C1NC(=O)/C(=C/c2ccccc2Oc2ccc(F)c(F)c2)S1 [Compound 8]
Second: O=C1NC(=O)/C(=C/c2ccccc2Oc2ccc(Cl)c(F)c2)S1 [Compound 12]
The IC50 of the first is 2.8-fold higher: 1300 nM for the first, 460 nM for the second.

First: O=C1NC(=O)/C(=C\c2ccccc2Oc2ccc([C@]34C[C@H]5C[C@H](C[C@H](C5)C3)C4)cc2)S1 [Compound 17]
Second: CCC(C)(C)c1cc(C)c(Oc2ccccc2/C=C2\SC(=O)NC2=O)c(C)c1 [Compound 18]
The IC50 of the first is 5.7-fold lower: 1400 nM for the first, 8000 nM for the second. The first is the more potent here.
